{"sequences": {"note": "The chains behind the UniProt entries cited, without tags or fusion partners. Where a name states a change or a piece, a line headed by the entry shows the natural chain unless it says otherwise.", "UniProt O60674": "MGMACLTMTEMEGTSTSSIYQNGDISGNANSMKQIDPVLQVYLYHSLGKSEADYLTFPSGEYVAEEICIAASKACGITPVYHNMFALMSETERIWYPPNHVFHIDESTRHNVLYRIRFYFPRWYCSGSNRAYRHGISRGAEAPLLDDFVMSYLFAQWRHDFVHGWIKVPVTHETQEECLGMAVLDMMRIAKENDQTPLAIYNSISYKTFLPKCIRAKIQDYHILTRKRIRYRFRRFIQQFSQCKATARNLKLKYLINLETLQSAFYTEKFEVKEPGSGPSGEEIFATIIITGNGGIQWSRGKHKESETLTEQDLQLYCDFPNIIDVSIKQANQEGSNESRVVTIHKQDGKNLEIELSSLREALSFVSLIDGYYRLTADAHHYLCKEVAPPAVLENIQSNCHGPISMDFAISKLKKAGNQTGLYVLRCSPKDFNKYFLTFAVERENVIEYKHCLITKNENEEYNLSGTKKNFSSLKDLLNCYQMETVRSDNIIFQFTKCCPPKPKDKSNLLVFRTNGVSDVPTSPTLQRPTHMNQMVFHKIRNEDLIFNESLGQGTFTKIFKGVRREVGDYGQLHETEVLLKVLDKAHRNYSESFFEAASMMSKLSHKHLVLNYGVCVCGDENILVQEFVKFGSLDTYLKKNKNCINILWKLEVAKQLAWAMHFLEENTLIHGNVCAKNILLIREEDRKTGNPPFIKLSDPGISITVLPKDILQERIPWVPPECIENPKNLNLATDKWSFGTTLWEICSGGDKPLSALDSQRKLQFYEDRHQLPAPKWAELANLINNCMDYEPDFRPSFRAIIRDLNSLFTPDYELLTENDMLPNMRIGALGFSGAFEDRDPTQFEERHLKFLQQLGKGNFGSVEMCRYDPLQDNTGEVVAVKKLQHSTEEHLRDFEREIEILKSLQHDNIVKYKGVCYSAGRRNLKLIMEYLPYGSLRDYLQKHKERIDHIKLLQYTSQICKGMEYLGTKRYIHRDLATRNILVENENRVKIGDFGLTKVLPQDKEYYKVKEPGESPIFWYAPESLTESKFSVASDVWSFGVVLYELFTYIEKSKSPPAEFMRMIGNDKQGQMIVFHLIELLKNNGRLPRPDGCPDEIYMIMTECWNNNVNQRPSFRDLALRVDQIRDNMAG"}, "source": "ChEMBL document CHEMBL6074673", "about": "“Discovery of UCB9386: A Potent, Selective, and Brain-Penetrant Nuak1 Inhibitor Suitable for In Vivo Pharmacological Studies” (J Med Chem, 2024)", "key": {"[1]": {"target": "Tyrosine-protein kinase JAK2 (Homo sapiens) (UniProt O60674)", "experiment": "Inhibition of Jak2 (unknown origin) at 10 uM relative to control"}, "[2]": {"target": "T1, NUAK family SNF1-like kinase 2 (Homo sapiens) (UniProt Q9H093)", "T1 sequence (whole entry)": "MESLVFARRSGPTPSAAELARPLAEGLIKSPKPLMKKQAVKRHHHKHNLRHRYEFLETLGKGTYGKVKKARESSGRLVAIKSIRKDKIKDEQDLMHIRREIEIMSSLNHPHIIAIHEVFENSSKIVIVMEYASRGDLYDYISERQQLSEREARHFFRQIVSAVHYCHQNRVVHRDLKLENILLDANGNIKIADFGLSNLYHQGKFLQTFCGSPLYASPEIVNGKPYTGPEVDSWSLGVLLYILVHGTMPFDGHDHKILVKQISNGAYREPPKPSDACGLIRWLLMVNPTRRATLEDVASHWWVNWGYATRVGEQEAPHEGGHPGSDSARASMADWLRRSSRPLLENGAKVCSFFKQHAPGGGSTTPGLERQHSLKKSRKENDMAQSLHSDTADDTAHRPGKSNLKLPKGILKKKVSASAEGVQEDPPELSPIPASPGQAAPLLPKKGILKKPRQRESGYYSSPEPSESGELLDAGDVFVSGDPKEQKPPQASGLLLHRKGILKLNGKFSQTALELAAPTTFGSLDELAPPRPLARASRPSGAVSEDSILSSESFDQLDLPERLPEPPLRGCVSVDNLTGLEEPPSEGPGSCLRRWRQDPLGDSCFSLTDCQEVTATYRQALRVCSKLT", "experiment": "Inhibition of Nuak2 (unknown origin) at 10 uM relative to control"}}, "data": [{"smiles": "C[C@H](c1ccccc1)n1c(=O)c(N2CC3(CN(C)C3)C2)nc2cnc(-c3cnc4cccnn34)cc21", "values": [{"measurement": "inhibition", "setting": "[1]", "value": "> 50", "unit": "%"}, {"measurement": "inhibition", "setting": "[2]", "value": "> 50", "unit": "%"}]}]}
